Yeast mating assay 1: variants of the scFv Ab-14

Target peptide (SARS-CoV-2 spike, HR2 region): PDVDLGDISGINAS

Parent scFv Ab-14: VH joined to VL by the linker GGGGSGGGGSGGGGS. Changes lie in the heavy chain CDRs alone.
VH: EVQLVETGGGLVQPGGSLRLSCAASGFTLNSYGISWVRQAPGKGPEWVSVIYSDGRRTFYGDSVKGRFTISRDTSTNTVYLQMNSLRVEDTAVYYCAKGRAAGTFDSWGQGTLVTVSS
VL: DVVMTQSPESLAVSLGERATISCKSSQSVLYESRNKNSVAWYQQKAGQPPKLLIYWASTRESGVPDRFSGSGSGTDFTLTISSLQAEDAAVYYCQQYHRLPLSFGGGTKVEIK

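The starting antibody came from a phage panning campaign against this peptide. The library (AAYL49) carries one to three amino acid substitutions per variant, with no insertions or deletions. The assay is AlphaSeq: two haploid yeast populations carry antibody and antigen on their surface. Pairs that bind mate more often; barcode pairs of the diploids are counted by sequencing. Read counts were normalised to the haploid input and turned into Kd by a linear fit to BCL2-family pairs of known affinity, for each replicate. Mating was done three times.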

Positions count from residue 1 of the parent VH; G33P puts P in place of G.
Numbers give log10(Kd / nM), so 0 is 1 nM and 3 is 1 µM. Smaller is tighter.
The mean shown is taken over the replicates in which the pair was detected.
"n.d." marks a missing value. The strain was present, yet no cells mated with the target were sequenced in that replicate, which points to weak or no binding.
Nonspecific signal, from three strains lacking the peptide, appeared in 15% of pairings of library AAYL49, centred on 4.06 (5% of these signals below 2.83); values are not corrected for it. For each scFv, signals with the empty controls are counted beside the result, with their mean in brackets.

| changes | log10 Kd (nM) by replicate | log10 Kd (nM), mean | control signals |
|---|---|---|---|
| G33P+V64H | n.d. n.d. 3.45 | 3.45 | 2 of 9 (4.21) |
| G26K+S31K+V50R | n.d. n.d. n.d. | n.d. | 6 of 9 (4.07) |
| S53F+R57D | 4.41 n.d. n.d. | 4.41 | 0 of 9 |
| S31P+V64N+K65A | n.d. n.d. n.d. | n.d. | 3 of 9 (3.92) |
| S53Q+D62F+A101W | n.d. n.d. n.d. | n.d. | 1 of 9 (3.31) |
| Y52M+D62M | n.d. n.d. n.d. | n.d. | 0 of 9 |
| N30R+Y60R+G99E | n.d. n.d. n.d. | n.d. | 1 of 9 (3.85) |
| Y32D+R56H+T104A | n.d. n.d. n.d. | n.d. | 1 of 9 (3.48) |
| L29E | n.d. n.d. n.d. | n.d. | 3 of 9 (3.74) |
| T58G+D62R+G99Y | 3.58 n.d. 3.77 | 3.68 | 6 of 9 (4.19) |
| I34P+G61Q | n.d. 3.36 n.d. | 3.36 | 1 of 9 (2.69) |
| Y52A | n.d. n.d. n.d. | n.d. | 2 of 9 (2.92) |
| R56I+T58C+Y60R | n.d. n.d. 4.52 | 4.52 | 1 of 9 (5.20) |
| G33A+D62E+S63E | n.d. n.d. 3.04 | 3.04 | 3 of 9 (3.24) |
| L29E+Y52E+K65V | n.d. n.d. n.d. | n.d. | 0 of 9 |
| D62F+R100W+S107D | n.d. n.d. n.d. | n.d. | 2 of 9 (3.88) |
| G26F+T28S+G33T | n.d. n.d. n.d. | n.d. | 1 of 9 (3.22) |
| S31H+G99H+D106C | n.d. n.d. n.d. | n.d. | 0 of 9 |
| D54F+G55I+A101H | n.d. n.d. n.d. | n.d. | 0 of 9 |
| S35N+V50Y+T104S | 3.95 n.d. n.d. | 3.95 | 3 of 9 (4.31) |
| N30H+S63D+G103E | 5.94 n.d. 6.04 | 5.99 | 2 of 9 (3.79) |
| S35T+R56Q+S107E | n.d. n.d. n.d. | n.d. | 1 of 9 (3.66) |
| D62C+G99W+F105D | n.d. n.d. n.d. | n.d. | 0 of 9 |
| F27E+I51Q+V64Y | n.d. 4.35 n.d. | 4.35 | 3 of 9 (3.87) |
| I34W+S35H+S53A | 2.32 1.99 2.21 | 2.17 | 1 of 9 (4.40) |
| G26V+Y32T+I51F | n.d. n.d. n.d. | n.d. | 2 of 9 (4.54) |
| S35H | 1.71 1.56 1.93 | 1.73 | 1 of 9 (2.32) |
| S53T+V64H+D106L | 3.69 3.36 3.96 | 3.67 | 4 of 9 (3.87) |
| Y52V+R57Y+S63P | n.d. 4.71 n.d. | 4.71 | 3 of 9 (4.27) |
| D54I+D62M+G99C | 4.73 5.01 n.d. | 4.87 | 6 of 9 (4.49) |
| S53H+A102E | n.d. 3.95 n.d. | 3.95 | 1 of 9 (4.38) |
| F27C+S53W+F59C | n.d. n.d. n.d. | n.d. | 1 of 9 (3.21) |
| T58N+G61N+D62K | n.d. n.d. n.d. | n.d. | 1 of 9 (1.60) |
| N30H+G33E+S107A | n.d. n.d. n.d. | n.d. | 1 of 9 (1.40) |
| G26S+R100T+S107E | 1.61 1.68 1.64 | 1.64 | 2 of 9 (2.64) |
| I51S+V64N+A102S | 3.63 4.33 4.95 | 4.30 | 1 of 9 (5.75) |
| I34H+Y60S+G61K | n.d. n.d. n.d. | n.d. | 0 of 9 |
| S31T+S53L+R56Q | 4.73 n.d. n.d. | 4.73 | 0 of 9 |
| G55M+R56A+T104A | n.d. n.d. n.d. | n.d. | 3 of 9 (4.22) |

Excerpt, the final 5 entries:

| changes | log10 Kd (nM) by replicate | log10 Kd (nM), mean | control signals |
|---|---|---|---|
| G26S+R100T+S107E | 1.61 1.68 1.64 | 1.64 | 2 of 9 (2.64) |
| I51S+V64N+A102S | 3.63 4.33 4.95 | 4.30 | 1 of 9 (5.75) |
| I34H+Y60S+G61K | n.d. n.d. n.d. | n.d. | 0 of 9 |
| S31T+S53L+R56Q | 4.73 n.d. n.d. | 4.73 | 0 of 9 |
| G55M+R56A+T104A | n.d. n.d. n.d. | n.d. | 3 of 9 (4.22) |

Parent in this assay: reference entry 0.65, copy in this library 4.11 (one replicate of three).

Data: MIT Lincoln Laboratory AlphaSeq set, Engelhart et al. 2022, doi:10.1038/s41597-022-01779-4, as distributed in FLAb.